One molecule from PMC6858373 (Scientific Reports, 2019) can be followed below.

Chains of the proteins cited; added tags and fusions are not shown. Residues count along the entry.
UniProt Q92915, 1-252 isoform Q92915-2: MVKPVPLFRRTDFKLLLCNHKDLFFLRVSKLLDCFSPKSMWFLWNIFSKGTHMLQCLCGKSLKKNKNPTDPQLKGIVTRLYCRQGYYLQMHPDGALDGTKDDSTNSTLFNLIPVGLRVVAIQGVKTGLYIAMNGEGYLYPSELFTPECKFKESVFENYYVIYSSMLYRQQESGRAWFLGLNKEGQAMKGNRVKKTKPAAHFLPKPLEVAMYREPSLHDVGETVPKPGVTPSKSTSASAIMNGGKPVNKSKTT
UniProt Q9UQD0, 1763-1976 limits assumed: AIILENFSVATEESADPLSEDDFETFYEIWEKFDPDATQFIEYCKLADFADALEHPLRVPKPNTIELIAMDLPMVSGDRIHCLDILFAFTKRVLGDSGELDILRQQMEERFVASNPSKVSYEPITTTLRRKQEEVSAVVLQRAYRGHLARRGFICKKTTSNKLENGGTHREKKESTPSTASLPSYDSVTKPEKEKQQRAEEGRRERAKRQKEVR

The target of this assay is FGF14:Nav1.6 C-tail complex (Homo sapiens, UniProt Q92915+Q9UQD0). Nature of the assay: Split-luciferase complementation assay (LCA) in Clone V double stable HEK293 cells. The note with it: CC_NCI screening, biological replicate Set 1.

`CS(=O)(=O)CCNCc1ccc(-c2ccc3ncnc(Nc4ccc(OCc5cccc(F)c5)c(Cl)c4)c3c2)o1` [LAPATINIB]: the “Split Luciferase Assay % Lum Set 1” value (LCA luminescence, normalized to on-plate 0.3% DMSO controls (n=16 per plate)) turned out to be 118.82%. In addition, under “LCA, normalized to on-plate 0.3% DMSO controls”, the “Split Luciferase Assay Z-score Set 1” value is reported as 1.52.
